Tests used:
[1] = molecular target: Acetylcholinesterase (Electrophorus electricus) (UniProt O42275); experiment: Inhibition of electric eel AChE using ACh as substrate at 0.1 mM measured for 30 mins by 1H NMR analysis relative to control
[2] = molecular target: Acetylcholinesterase (Electrophorus electricus) (UniProt O42275); experiment: Reactivation of paraoxon-inhibited electric eel AChE using ACh as substrate measured for 85 mins by 1H NMR analysis relative to control; design: scale not given: the % may be the effect or the level left
[3] = molecular target: Acetylcholinesterase (Electrophorus electricus) (UniProt O42275); experiment: Reactivation of paraoxon-inhibited electric eel AChE using ACh as substrate measured for 375 mins by 1H NMR analysis relative to control; design: scale not given: the % may be the effect or the level left
[4] = molecular target: Acetylcholinesterase (Homo sapiens) (UniProt P22303); experiment: Reactivation of paraoxon-inhibited human AChE using acetylthiocholine iodide as substrate at 25 mmol/L preincubated for 30 mins followed by substrate addition by Ellman method relative to control; design: scale not given: the % may be the effect or the level left

By UniProt entry, the sequences of proteins in these tests, tags left out. Where a name states a change or a piece, a line headed by the entry shows the natural chain unless it says otherwise.
UniProt O42275: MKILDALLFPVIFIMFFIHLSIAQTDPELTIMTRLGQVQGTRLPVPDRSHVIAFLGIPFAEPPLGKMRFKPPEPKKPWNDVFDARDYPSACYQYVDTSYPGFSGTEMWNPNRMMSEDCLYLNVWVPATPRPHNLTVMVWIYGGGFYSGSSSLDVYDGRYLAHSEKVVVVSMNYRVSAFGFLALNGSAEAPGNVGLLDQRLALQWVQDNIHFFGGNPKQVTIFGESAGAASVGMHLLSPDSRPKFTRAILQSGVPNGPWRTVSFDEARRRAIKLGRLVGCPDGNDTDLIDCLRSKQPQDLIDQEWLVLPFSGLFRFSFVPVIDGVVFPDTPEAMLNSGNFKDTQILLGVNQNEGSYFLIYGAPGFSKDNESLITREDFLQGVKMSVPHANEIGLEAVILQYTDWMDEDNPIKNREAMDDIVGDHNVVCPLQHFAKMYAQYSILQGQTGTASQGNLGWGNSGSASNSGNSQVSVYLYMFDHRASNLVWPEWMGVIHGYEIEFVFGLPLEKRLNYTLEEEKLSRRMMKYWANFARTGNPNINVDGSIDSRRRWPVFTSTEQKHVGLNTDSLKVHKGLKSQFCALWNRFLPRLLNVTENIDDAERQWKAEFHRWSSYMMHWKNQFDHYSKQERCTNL
UniProt P22303: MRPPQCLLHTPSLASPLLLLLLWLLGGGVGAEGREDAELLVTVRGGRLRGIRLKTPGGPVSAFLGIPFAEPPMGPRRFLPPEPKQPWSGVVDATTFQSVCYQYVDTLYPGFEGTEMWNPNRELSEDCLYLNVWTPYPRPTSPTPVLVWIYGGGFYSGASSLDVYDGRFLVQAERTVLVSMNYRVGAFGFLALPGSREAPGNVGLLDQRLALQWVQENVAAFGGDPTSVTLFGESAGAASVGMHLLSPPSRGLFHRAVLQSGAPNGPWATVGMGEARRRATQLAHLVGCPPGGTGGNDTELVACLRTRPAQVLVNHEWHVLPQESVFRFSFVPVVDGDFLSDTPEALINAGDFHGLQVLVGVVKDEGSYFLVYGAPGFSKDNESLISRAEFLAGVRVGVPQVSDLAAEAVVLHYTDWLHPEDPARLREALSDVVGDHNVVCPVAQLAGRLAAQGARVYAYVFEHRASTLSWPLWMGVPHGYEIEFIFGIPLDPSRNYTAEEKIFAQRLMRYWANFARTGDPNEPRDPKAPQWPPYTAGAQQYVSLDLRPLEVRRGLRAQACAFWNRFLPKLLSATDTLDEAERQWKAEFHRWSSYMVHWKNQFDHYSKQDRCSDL

Structure (SMILES) | inhibition [1] [%] | Activity [2] [%] | Activity [3] [%] | Activity [4] [%]
O=[N+]([O-])c1ccc(/C=N/O)cc1 | 0 | 6.61 |  | 
O/N=C/c1ccc(F)cc1 | 1 | 4.04 |  | 
O/N=C/c1ccccc1 | 37 | 10 | 15.5 | 
O/N=C/c1ccc(Cl)cc1 | 22 | 4.42 |  | 
C[n+]1ccccc1C=NO | 34 |  |  | 
O/N=C/c1cccs1 | 61 | 8.02 | 58.6 | 93
COc1ccc(/C=N/O)cc1 | 4 | 7.6 |  | 

Source: ChEMBL document CHEMBL2417470, “NMR determination of Electrophorus electricus acetylcholinesterase inhibition and reactivation by neutral oximes” (2013)
